Columns and labels:
[1] = biological target: rat mGlu5 (Rattus norvegicus (Rat), UniProt P31424); assay: mGlu5 Ca2+ flux assay; type: cell-based; conditions: read-out: rat mGlu5 EC50 or IC50
Method: The cells were grown overnight at 37° C. in the presence of 5% CO2. […] Dye was removed, 20 μL of assay buffer was added, and the plate was incubated for 5 minutes at room temperature. Ca^2+ flux was measured using the Functional Drug Screening System (FDSS7000, Hamamatsu, Japan). […] All test compounds were dissolved and diluted to a concentration of 10 mM in 100% DMSO. […] Calcium fluorescence measures were recorded as fold over basal fluorescence; raw data was then normalized to the maximal response to glutamate. […] The raw data file containing all time points was used as the data source in the analysis template. This was saved by the FDSS as a tab-delimited text file. Data were normalized using a static ratio function (F/F0) for each measurement of the total 360 values per well divided by each well's initial value. […] This is sufficient time to capture the peak amplitude of the cellular calcium response. […] EC50 values for test compounds were generated by fitting the normalized values versus the log of the test compound concentration (in mol/L) using a 4 parameter logistic equation where none of the parameters were fixed. Each of the three values collected at each concentration of test compound were weighted evenly.

The chains behind the UniProt entries cited, without tags or fusion partners. Residues count along the entry.
UniProt P31424, 21-1203: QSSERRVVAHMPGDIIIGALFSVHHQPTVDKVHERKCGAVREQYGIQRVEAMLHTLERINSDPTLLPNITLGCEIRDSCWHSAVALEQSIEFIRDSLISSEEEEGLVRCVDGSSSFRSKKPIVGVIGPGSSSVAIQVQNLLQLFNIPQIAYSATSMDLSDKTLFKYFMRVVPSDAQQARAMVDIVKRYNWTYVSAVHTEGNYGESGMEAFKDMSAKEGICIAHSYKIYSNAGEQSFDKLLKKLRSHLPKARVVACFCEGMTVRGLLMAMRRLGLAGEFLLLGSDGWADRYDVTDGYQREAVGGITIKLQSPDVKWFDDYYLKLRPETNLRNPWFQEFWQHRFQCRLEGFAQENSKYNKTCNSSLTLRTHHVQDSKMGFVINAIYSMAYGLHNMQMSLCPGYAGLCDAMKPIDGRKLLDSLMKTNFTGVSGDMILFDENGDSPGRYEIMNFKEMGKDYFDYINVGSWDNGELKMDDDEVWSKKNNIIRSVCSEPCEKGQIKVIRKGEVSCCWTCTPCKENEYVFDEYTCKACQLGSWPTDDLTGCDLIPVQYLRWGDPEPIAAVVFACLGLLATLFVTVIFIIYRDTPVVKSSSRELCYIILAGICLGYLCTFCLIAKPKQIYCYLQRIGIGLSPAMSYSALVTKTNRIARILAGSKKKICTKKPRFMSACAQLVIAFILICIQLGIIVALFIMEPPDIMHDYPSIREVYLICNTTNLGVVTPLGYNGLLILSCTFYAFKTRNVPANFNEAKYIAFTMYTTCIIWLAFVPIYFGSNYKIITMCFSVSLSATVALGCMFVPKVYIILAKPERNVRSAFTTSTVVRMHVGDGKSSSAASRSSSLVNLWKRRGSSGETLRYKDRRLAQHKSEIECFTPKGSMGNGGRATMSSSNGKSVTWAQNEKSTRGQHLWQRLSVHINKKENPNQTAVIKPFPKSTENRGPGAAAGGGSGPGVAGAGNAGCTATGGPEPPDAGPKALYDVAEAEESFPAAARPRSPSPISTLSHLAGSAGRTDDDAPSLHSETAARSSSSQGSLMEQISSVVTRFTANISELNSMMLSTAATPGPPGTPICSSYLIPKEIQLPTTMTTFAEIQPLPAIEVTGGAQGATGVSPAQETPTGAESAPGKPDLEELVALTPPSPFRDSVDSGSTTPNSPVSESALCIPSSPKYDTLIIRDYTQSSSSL
UniProt P31422, 23-879: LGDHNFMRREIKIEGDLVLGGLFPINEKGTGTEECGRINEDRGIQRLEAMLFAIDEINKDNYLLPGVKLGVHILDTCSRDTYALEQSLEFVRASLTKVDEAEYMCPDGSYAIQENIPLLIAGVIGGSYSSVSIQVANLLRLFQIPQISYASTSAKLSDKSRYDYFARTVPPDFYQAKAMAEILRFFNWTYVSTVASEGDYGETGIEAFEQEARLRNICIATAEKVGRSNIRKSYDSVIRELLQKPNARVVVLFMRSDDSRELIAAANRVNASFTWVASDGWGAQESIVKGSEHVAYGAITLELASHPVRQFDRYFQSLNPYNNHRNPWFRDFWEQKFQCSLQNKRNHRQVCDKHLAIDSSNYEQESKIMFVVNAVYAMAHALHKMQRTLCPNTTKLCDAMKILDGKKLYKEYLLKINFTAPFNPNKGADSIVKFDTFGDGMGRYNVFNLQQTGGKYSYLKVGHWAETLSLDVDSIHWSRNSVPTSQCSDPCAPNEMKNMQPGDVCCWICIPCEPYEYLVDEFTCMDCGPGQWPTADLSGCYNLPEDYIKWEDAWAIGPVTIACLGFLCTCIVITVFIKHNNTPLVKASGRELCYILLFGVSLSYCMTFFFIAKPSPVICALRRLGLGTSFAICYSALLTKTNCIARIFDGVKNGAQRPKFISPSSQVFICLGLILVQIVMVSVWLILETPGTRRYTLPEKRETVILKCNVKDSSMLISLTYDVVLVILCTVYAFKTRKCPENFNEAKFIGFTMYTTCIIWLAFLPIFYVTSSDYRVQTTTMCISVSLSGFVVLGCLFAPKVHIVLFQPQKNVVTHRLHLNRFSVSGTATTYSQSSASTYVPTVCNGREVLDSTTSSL

[2] = biological target: rat mGlu3 (Rattus norvegicus (Rat), UniProt P31422); assay: mGlu3 Ca2+ flux assay; type: cell-based; conditions: NAM potency, decrease of glutamate EC80 response; >30,000 = no measurable activity; >10,000 = no plateau
Method: The cells were grown overnight at 37° C. in the presence of 5% CO2. […] Dye was removed, 20 μL of assay buffer was added, and the plate was incubated for 10 minutes at room temperature. Ca^2+ flux was measured using the Functional Drug Screening System (FDSS7000, Hamamatsu, Japan). […] All test compounds were dissolved and diluted to a concentration of 10 mM in 100% DMSO. […] Calcium fluorescence measures were recorded as fold over basal fluorescence; raw data was then normalized to the maximal response to glutamate. Antagonism of the agonist response of the mGlu3 receptor in the present invention was observed as a decrease in response to nearly maximal concentrations of glutamate in the presence of compound compared to the response to glutamate in the absence of compound. The raw data file containing all time points was used as the data source in the analysis template. This was saved by the FDSS as a tab-delimited text file. Data were normalized using a static ratio function (F/F0) for each measurement of the total 360 values per well divided by each well's initial value. […] This is sufficient time to capture the peak amplitude of the cellular calcium response. […] EC50 values for test compounds were generated by fitting the normalized values versus the log of the test compound concentration (in mol/L) using a 4 parameter logistic equation where none of the parameters were fixed. […]

Structure (SMILES) | EC50 [1] [µM] | IC50 [2] [µM]
C[C@H]1CN(c2ccc(F)cc2)C(=O)c2cc(CNc3c(F)cccc3F)nn21 [Compound 73, (S)-2-(((2,6-difluorophenyl)amino)methyl)-5-(4-fluorophenyl)-7-methyl-6,7-dihydropyrazolo[1,5-a]pyrazin-4(5H)-one] | > 10 | –
C[C@@H]1CN(c2ccc(F)cc2)C(=O)c2cc(CNc3c(F)cccc3F)nn21 [Compound 72, (R)-2-(((2,6-difluorophenyl)amino)methyl)-5-(4-fluorophenyl)-7-methyl-6,7-dihydropyrazolo[1,5-a]pyrazin-4(5H)-one] | > 10 | 1.92

— patent publication US9676782B2, “Substituted pyrazolo[1,5-a]pyrazines as negative allosteric modulators of metabotropic glutamate receptor 3” (Vanderbilt University, priority 2014, dated 2017)
